System: Porcine buccal mucosa
Assay: Loxapine diffusion through Porcine buccal mucosa (Franz cell)
Details: penetration enhancer in loxapine oral film; permeation through the mucosa
Protocol: FIG. 1 graphically depicts 1 oxapine film diffusion through Porcine buccal mucosa (48-hrs-old unfrozen fresh mucosa) (Franz cell 1.76 cm2; 37° C.); saliva pH 6.8.
FIG. 2 graphically depicts 1 oxapine film diffusion through Porcine buccal mucosa (26-hrs-old unfrozen fresh mucosa) (Franz cell 1.76 cm2; 37° C.); saliva pH 6.8.
FIG. 3 graphically depicts 1 oxapine Solutions-diffusion through Porcine buccal mucosa (fresh mucosa kept at 4C for 48 hours) (Franz cell 1.76 cm2; 37° C.); saliva pH 6.8.
These penetration enhancers include sulphoxides (dimethylsulphoxide, decylmethyl sulfoxide), azones (laurocapram), pyrrolidones (2pyrrolidone, 2P), alcohols/alkanols (ethanol or decanol), glycols (propylene glycol), surfactants (anionic, sodium lauryl sulfate, sodium decyl sulfate), (Nonionic, Tween, PLE), (Cationic, chitosan, cetylpyridinium chloride), terpenes (1,8-cineole, menthol, and menthone, D-limonene), fatty acids (oleic acid, sodium caprate), and bile salts (sodium deoxycholate, sodium deoxyglycocholate).

D-a-Tocopherol Vitamin E 1000 succinate
Effect on loxapine absorption/permeation: positif effect (+)
